Data reported in patent US9056111B1, “Selective efflux inhibitors and related pharmaceutical compositions and methods of treatment” (STC.UNM, priority 2011, dated 2015).

Protein sequences, listed by entry. Tags and fused reporters are not part of them.
UniProt P08183, whole entry: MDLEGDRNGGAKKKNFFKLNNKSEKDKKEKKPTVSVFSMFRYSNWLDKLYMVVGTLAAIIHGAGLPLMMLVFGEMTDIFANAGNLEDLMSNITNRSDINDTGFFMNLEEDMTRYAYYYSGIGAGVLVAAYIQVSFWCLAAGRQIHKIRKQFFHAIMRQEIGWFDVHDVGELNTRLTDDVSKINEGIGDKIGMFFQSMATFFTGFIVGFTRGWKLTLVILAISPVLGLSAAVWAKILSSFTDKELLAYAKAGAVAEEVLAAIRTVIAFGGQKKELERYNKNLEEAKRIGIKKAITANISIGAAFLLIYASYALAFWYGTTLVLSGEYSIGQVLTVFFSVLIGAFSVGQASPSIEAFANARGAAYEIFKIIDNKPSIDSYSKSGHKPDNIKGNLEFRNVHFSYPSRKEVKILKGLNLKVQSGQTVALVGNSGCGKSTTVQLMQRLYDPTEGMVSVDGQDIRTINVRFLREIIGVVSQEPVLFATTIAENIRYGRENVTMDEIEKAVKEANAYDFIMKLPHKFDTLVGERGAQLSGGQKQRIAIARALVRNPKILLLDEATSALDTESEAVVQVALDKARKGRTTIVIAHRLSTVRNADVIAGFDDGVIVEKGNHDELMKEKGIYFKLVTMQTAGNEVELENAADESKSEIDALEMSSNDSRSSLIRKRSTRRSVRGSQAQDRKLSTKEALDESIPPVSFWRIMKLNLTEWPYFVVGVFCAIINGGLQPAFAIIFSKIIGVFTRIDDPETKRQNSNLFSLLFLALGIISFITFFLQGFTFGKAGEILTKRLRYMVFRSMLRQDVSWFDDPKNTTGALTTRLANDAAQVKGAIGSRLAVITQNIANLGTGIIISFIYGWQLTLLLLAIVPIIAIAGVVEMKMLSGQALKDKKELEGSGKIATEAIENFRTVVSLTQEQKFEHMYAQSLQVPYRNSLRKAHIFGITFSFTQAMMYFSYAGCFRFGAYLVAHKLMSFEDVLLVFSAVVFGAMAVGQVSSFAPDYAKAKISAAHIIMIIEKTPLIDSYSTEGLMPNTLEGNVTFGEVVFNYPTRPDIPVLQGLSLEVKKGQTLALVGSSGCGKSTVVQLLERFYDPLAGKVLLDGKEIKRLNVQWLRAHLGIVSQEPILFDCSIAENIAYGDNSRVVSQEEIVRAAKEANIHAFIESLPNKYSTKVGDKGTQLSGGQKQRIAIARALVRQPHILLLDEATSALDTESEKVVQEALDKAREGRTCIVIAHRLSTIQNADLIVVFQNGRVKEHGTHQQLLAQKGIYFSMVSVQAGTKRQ

Target: ABCB1 (Homo sapiens, UniProt P08183)
Description: The HyperCyt® high throughput flow cytometry platform (IntelliCyt™, Albuquerque, N. Mex.) was used to sequentially sample cells from 384-well microplates (2 μL/sample) for flow cytometer presentation at a rate of 40 samples per minute.^62-63 Flow cytometric analysis was performed on a CyAn™ flow cytometer (Beckman-Coulter, Fullerton, Calif.). The resulting time-gated data files were analyzed with HyperView® software to determine compound activity in each well. Inhibition response curves were fitted by Prism® software (GraphPad Software, Inc., San Diego, Calif.) using nonlinear least-squares regression in a sigmoidal dose response model with variable slope, also known as the four-parameter logistic equation. This type of time-gated flow cytometric data analysis was described in detail for a previous ABC transporter screen from our group.^56
The assay provider's ABCB1 over-expressing Jurkat-DNR cell line is used for confirmatory follow up instead of the CCRF-Adr cells. Each cell line (Jurkat-DNR and Ig-MXP3) is run separately against all compounds (no differential cell staining) in dose response. […] The plate is rotated end-over-end at 4 RPM and 25° C. for 30 minutes and then cell samples are analyzed and flow cytometric data of light scatter and fluorescence emission at 530+/−20 nm (488 nm excitation, FL1) are collected. […]

With `COc1ccc2c3c([nH]c2c1)[C@H](CC(C)C)N1C(=O)[C@H](CCC(=O)OC(C)(C)C)NC(=O)[C@@H]1C3` [Compound 4, reference compound] the IC50 was greater than 50 µM and the “efflux inhibition activity ABCB1” value was “no activity”.
